Activity data for 30 molecules are collected here from ChEMBL document CHEMBL5042528, “Optimization of 2-Amino-4,6-diarylpyrimidine-5-carbonitriles as Potent and Selective A1 Antagonists” (J Med Chem, 2022).

Protein sequences, listed by entry. Tags and fused reporters are not part of them.
UniProt P30542, whole entry: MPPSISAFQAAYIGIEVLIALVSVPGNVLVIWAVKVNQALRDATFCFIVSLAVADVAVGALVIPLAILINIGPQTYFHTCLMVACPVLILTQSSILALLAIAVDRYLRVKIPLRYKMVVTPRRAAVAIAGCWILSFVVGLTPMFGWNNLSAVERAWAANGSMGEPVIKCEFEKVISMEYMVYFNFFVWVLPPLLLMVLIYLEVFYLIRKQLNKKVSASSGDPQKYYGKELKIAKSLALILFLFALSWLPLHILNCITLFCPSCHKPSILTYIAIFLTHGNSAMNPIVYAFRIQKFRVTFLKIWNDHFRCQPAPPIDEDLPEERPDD

Each structure is given as a SMILES string.

For the assay, the target named is Adenosine receptor A1 (Homo sapiens, UniProt P30542). Briefly: Displacement of [3H]DPCPX from human A1AR expressed in CHO cell membrane at 1 uM incubated for 60 mins by microbeta trilux scintillation counter analysis relative to control. The format is cell membranes.

On to `N#Cc1c(-c2ccccc2)nc(Nc2ccccc2)nc1-c1ccc(F)cc1F`, for which the Activity amounted to 1%. In the case of `N#Cc1c(-c2ccccc2)nc(Nc2ccccc2)nc1-c1cccc(F)c1` it was 1%; in that of `COc1cc(OC)cc(-c2nc(Nc3ccccc3)nc(-c3ccccc3)c2C#N)c1`, 10%; in that of `CNc1nc(-c2ccccc2)c(C#N)c(-c2cccs2)n1`, 18%. `N#Cc1c(-c2ccccc2)nc(Nc2ccccc2)nc1-c1cccc(Cl)c1` registered an Activity of 22%. Turning to `N#Cc1c(-c2ccccc2)nc(N)nc1-c1ccccc1Cl`, the Activity came out at 5%. `CN(C)c1nc(-c2ccccc2)c(C#N)c(-c2cccc(Cl)c2)n1` yielded an Activity of 11%. For `CNc1nc(-c2cccc(Cl)c2)c(C#N)c(-c2cc(Cl)cc(Cl)c2)n1`, the Activity is 10%. As for `COc1ccc(-c2nc(Nc3ccccc3)nc(-c3ccccc3)c2C#N)cc1`, the figure is 24%. In turn, `N#Cc1c(-c2ccccc2)nc(Nc2ccccc2)nc1-c1cc(Cl)cc(Cl)c1` registered an Activity of 8%.

As for `CNc1nc(-c2ccccc2)c(C#N)c(-c2cc(F)cc(F)c2)n1`, the Activity was found to be 16%.

The molecule `N#Cc1c(-c2ccccc2)nc(Nc2ccccc2)nc1-c1ccccc1Cl` showed an Activity of 16%. On to `CN(C)c1nc(-c2ccccc2)c(C#N)c(-c2ccccc2)n1`, for which the Activity was found to be 8%. Consider `CN(C)c1nc(-c2ccccc2)c(C#N)c(-c2ccc(F)cc2)n1`, for which the Activity worked out at 12%. Consider `N#Cc1c(-c2ccccc2)nc(Nc2ccccc2)nc1-c1ccc(Br)cc1`, for which the Activity turned out to be 5%. As for `CNc1nc(-c2cccc(Cl)c2)c(C#N)c(-c2cccc(Cl)c2)n1`, the figure is 6%; as for `CNc1nc(-c2ccccc2)c(C#N)c(-c2ccccc2Cl)n1`, 2%. As for `CNc1nc(-c2ccccc2)c(C#N)c(-c2ccccc2OC)n1`, the figure is 17%; as for `N#Cc1c(-c2ccccc2)nc(N)nc1-c1cc(F)cc(F)c1`, 27%; as for `N#Cc1c(-c2ccccc2)nc(Nc2ccccc2)nc1-c1ccncc1`, 30%. As for `CNc1nc(-c2ccccc2)c(C#N)c(C2CCCCC2)n1`, the figure is 2%; as for `N#Cc1c(-c2ccccc2)nc(N)nc1-c1ccc(Cl)cc1Cl`, 35%; as for `N#Cc1c(-c2ccccc2)nc(Nc2ccccc2)nc1-c1cccnc1`, 23%. `N#Cc1c(-c2ccccc2)nc(N)nc1C1CCCC1` had an Activity of 10%.

In the case of `N#Cc1c(-c2ccccc2)nc(N)nc1C1CCCCC1`, the Activity was found to be 20%. The molecule `N#Cc1c(-c2cccc(Cl)c2)nc(Nc2ccccc2)nc1-c1cc(Cl)cc(Cl)c1` registered an Activity of 2%. In the case of `CNc1nc(-c2ccccc2)c(C#N)c(-c2ccc(Br)cc2)n1` it was 12%. In the case of `N#Cc1c(-c2cccc(Cl)c2)nc(Nc2ccccc2)nc1-c1cccc(Cl)c1` it was 13%; in that of `N#Cc1c(-c2ccccc2)nc(Nc2ccccc2)nc1-c1ccsc1`, 9%. In the case of `N#Cc1c(-c2ccccc2)nc(Nc2ccccc2)nc1-c1ccc(O)cc1` it was 4%.
